In article PMC7278358, “Kinetic parameters of human aspartate/asparagine–β-hydroxylase suggest that it has a possible function in oxygen sensing” (The Journal of Biological Chemistry, 2020):
“And” between values parts separate entries of the source, which are not always exact repeats. Identical values can stand only once.

By UniProt entry, the sequences of proteins in these tests, tags left out. Residues count along the entry.
UniProt Q12797, 315-758 limits assumed: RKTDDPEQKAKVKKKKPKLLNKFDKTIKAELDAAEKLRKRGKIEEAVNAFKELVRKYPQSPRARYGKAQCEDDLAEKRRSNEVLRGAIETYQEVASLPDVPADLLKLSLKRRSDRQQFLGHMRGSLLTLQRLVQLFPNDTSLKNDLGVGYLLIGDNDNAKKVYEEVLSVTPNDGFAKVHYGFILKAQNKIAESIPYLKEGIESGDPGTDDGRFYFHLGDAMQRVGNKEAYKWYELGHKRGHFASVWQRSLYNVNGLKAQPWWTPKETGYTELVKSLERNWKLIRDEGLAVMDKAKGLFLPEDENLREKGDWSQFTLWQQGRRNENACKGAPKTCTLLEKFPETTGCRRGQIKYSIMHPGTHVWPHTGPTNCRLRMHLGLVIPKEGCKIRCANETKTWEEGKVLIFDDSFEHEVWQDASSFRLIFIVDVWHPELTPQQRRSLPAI

Experiments:
human His6–AspH315–758 [1] = target: T1, human His6–AspH315–758 (Homo sapiens, UniProt Q12797); assay: AspH steady-state kinetics from initial hydroxylation rates (SPE-MS, Michaelis–Menten); type: biochemical; conditions: 20 μM FAS, 20 μM 2OG; for Km / vmax / kcat/Km / kcat: peptide as varied substrate, mean ± S.D., n = 3; for Km / vmax: 0.1 μM His6–AspH315–758, 100 μM LAA, 50 mM HEPES pH 7.5, 20 °C, SPE-MS; for kcat/Km / kcat / substrate concentration at which substrate inhibition was observed: 100 μM LAA, pH 7.5, 20 °C; for kcat: based on active enzyme 90.8 nM (2,4-PDCA titration)
Procedure: The reactions were monitored with a rate of 1 sample/25 s using the same SPE-MS configuration as described above. The data were analyzed as described above, and the slopes of the initial reaction rates (Fig. S6) were fitted to a Michaelis-Menten plot using nonlinear regression (GraphPad Prism 5). […] The reactions were monitored by SPE-MS with a rate of 1 sample/25 s using identical configurations as before. The data were analyzed as described, and the slopes of the initial reaction rates (Fig. […] The Morrison equation is as follows, where I is the inhibitor concentration, Ki is the dissociation constant of the inhibitor, ET is the total concentration of active enzyme, and vi/v0 is the fractional enzyme activity ([94]).

human His6–AspH315–758 [2] = target: T1, human His6–AspH315–758; assay: AspH activity assay: SPE-MS time course of peptide hydroxylation; conditions: 0.1 μM His6–AspH315–758, 2.0 μM peptide, 100 μM LAA, 10 μM FAS, 10 μM 2OG, 50 mM HEPES pH 7.5, 20 °C; for time to complete hydroxylation: SPE-MS
Procedure: The substrate mixture (1.0 ml) containing 2.4 μM peptide, 120 μM LAA, 12 μM FAS, and 12 μM 2OG in 50 mM HEPES buffer (pH 7.5) was added into a well of a 2-ml volume 96-well assay plate (Greiner) at 20 °C under an ambient atmosphere. A blank sample was analyzed using a RapidFire RF 360 high-throughput sampling robot (Agilent) attached to an Agilent 6530 accurate mass quadrupole TOF mass spectrometer operated in the positive ionization mode. The enzyme mixture (0.2 ml), containing 0.6 μM His6–AspH315–758 in 50 mM HEPES buffer (pH 7.5), was then added to the well and thoroughly mixed. The RapidFire sampling robot was programmed to analyze 1 sample/min. The following SPE-MS conditions were used: assay samples were aspirated under vacuum for 0.4 s and loaded onto a C4 SPE cartridge. After loading, the C4 SPE cartridge was washed with 0.1% (v/v) aqueous formic acid to remove nonvolatile buffer salts (5 s, 1.5 ml/min). The peptide was then eluted from the SPE cartridge with 0.1% (v/v) aqueous formic acid in 85/15 (v/v) acetonitrile/water into the mass spectrometer (5 s, 1.25 ml/min). The SPE cartridge was re-equilibrated with 0.1% (v/v) aqueous formic acid (1 s, 1.25 ml/min). The mass spectrometer parameters were capillary voltage (3500 V), fragmentor voltage (150 V), gas temperature (350 °C), gas flow (12 liters/min). The m/z + 2 charge states of the substrate peptide and the product (hydroxylated) peptide were used to extract ion chromatogram data; peak areas were integrated using RapidFire Integrator software (Agilent). The data were exported into Microsoft Excel and used to calculate the percentage of conversion of the hydroxylation reaction using the equation: % conversion = 100 × (integral product peptide)/(integral substrate peptide + integral product peptide).

SMILES: CC[C@H](C)[C@@H]1NC(=O)CNC(=O)[C@H](CC(=O)O)NC(=O)[C@H]([C@@H](C)CC)NC(=O)[C@@H](C)NC(=O)CSC[C@@H](C(=O)N[C@@H](CC(=O)O)C(=O)N[C@@H](CO)C(=O)N[C@@H](CCCNC(=N)N)C(=O)N[C@@H](CO)C(=O)NCC(=O)N[C@@H](Cc2c[nH]c3ccccc23)C(=O)N[C@@H](CCC(=O)O)C(=O)NCC(=O)N[C@@H](CCCNC(=N)N)C(N)=O)NC(=O)[C@H](CO)NC(=O)[C@H](Cc2ccccc2)NC(=O)[C@H](CO)NC(=O)CNC1=O
- Km (human His6–AspH315–758 [1]): 1.7 µM and 1.71 µM
- vmax (human His6–AspH315–758 [1]): 0.0156 ± 0.0006 µM/s
- kcat/Km (human His6–AspH315–758 [1]): 100000 ± 20000 M⁻¹ s⁻¹
- kcat (human His6–AspH315–758 [1]): 0.17 s⁻¹ and 0.17 ± 0.03 s⁻¹
- time to complete hydroxylation (human His6–AspH315–758 [2]): less than 15 min
- Hydroxylation t = 15 min (human His6–AspH315–758 [2]; % conversion by SPE-MS): >95%

SMILES: CC(C)C[C@H](NC(=O)[C@H](CO)NC(=O)[C@H](Cc1c[nH]cn1)NC(=O)CNC(=O)[C@H](CCC(=O)O)NC(=O)[C@H](Cc1c[nH]c2ccccc12)NC(=O)[C@H](CO)NC(=O)[C@H](CCC(N)=O)NC(=O)[C@@H]1CSCC(=O)N[C@H](C)C(=O)N[C@@H](C(C)C)C(=O)N[C@@H](CC(N)=O)C(=O)N[C@@H]([C@@H](C)O)C(=O)N[C@@H](C)C(=O)NCC(=O)N[C@@H](CO)C(=O)N[C@@H](Cc2ccc(O)cc2)C(=O)N[C@@H](Cc2c[nH]c3ccccc23)C(=O)N1)C(=O)N[C@@H](CO)C(N)=O
- substrate concentration at which substrate inhibition was observed (human His6–AspH315–758 [1]): > 4 µM
- Km (human His6–AspH315–758 [1]): 2.04 µM
- vmax (human His6–AspH315–758 [1]): 0.0228 ± 0.0043 µM/s
- kcat/Km (human His6–AspH315–758 [1]): 120000 ± 50000 M⁻¹ s⁻¹
- kcat (human His6–AspH315–758 [1]): 0.25 ± 0.06 s⁻¹
- time to complete hydroxylation (human His6–AspH315–758 [2]): less than 15 min
- Hydroxylation t = 15 min (human His6–AspH315–758 [2]; % conversion by SPE-MS): >95%

SMILES: CC[C@H](C)[C@@H]1NC(=O)[C@H](Cc2ccccc2)NC(=O)[C@H](CC(N)=O)NC(=O)[C@H](CC(N)=O)NC(=O)[C@@H](C)NC(=O)CSC[C@@H](C(=O)N[C@@H](CO)C(=O)N[C@@H](CO)C(=O)N2CCC[C@H]2C(=O)N2CCC[C@H]2C(=O)N[C@@H](CCC(=O)O)C(=O)N[C@@H](Cc2ccc(O)cc2)C(=O)N[C@@H](Cc2ccccc2)C(=O)N[C@@H](CC(C)C)C(=O)N[C@@H](Cc2c[nH]cn2)C(N)=O)NC(=O)[C@H](Cc2ccccc2)NC(=O)[C@H](Cc2ccc(O)cc2)NC(=O)CNC(=O)CNC1=O
- Km (human His6–AspH315–758 [1]): 36.5 µM
- vmax (human His6–AspH315–758 [1]): 0.0109 ± 0.0006 µM/s
- kcat/Km (human His6–AspH315–758 [1]): 3300 ± 700 M⁻¹ s⁻¹
- kcat (human His6–AspH315–758 [1]): 0.12 s⁻¹ and 0.12 ± 0.02 s⁻¹
- Hydroxylation t = 15 min (human His6–AspH315–758 [2]; % conversion by SPE-MS): ∼20%
- Hydroxylation t = 200 min (human His6–AspH315–758 [2]; % conversion by SPE-MS): ∼85%

SMILES: CC(C)C[C@H](NC(=O)[C@H](CCC(=O)O)NC(=O)[C@H](Cc1ccc(O)cc1)NC(=O)CNC(=O)[C@@H]1CCCN1C(=O)[C@H](CCCNC(=N)N)NC(=O)[C@H](CO)NC(=O)[C@H](CO)NC(=O)[C@@H]1CSCC(=O)N[C@H](C)C(=O)N[C@@H](Cc2c[nH]cn2)C(=O)N[C@@H](CC(N)=O)C(=O)N[C@@H](Cc2ccc(O)cc2)C(=O)N[C@@H](C(C)C)C(=O)NCC(=O)NCC(=O)N[C@@H](Cc2ccc(O)cc2)C(=O)N[C@@H](Cc2ccccc2)C(=O)N1)C(=O)N[C@@H](CCC(N)=O)C(N)=O
- substrate concentration at which substrate inhibition was observed (human His6–AspH315–758 [1]): > 4 µM
- Km (human His6–AspH315–758 [1]): 3 µM
- vmax (human His6–AspH315–758 [1]): 0.041 ± 0.007 µM/s
- kcat/Km (human His6–AspH315–758 [1]): 150000 ± 50000 M⁻¹ s⁻¹
- kcat (human His6–AspH315–758 [1]): 0.45 ± 0.10 s⁻¹
- time to complete hydroxylation (human His6–AspH315–758 [2]): less than 15 min
- Hydroxylation t = 15 min (human His6–AspH315–758 [2]; % conversion by SPE-MS): ∼90%
